# Values quoted from earlier work as cited in US20160338955A1, “ANTIGEN-SPECIFIC IMMUNOTHERAPY USING TOLERIZING LIPOSOMES” (PLS-Design GmbH, priority 2015, published 2016).
# Conditions: 45 mg CMS/kg/day in two divided doses, one to two weeks; cited from earlier work
substance,measurement,value
choline magnesium trisalicylate [CMS],"steady state serum salicylate level, mean value",213 ± 10 mg/L
